This test is described as follows: Selectivity ratio of EC50 for gamma-secretase to EC50 for mouse notch.

Consider `CC[C@H](C)[C@@H](CO)NS(=O)(=O)c1ccc(Cl)cc1`, for which the Ratio EC50 worked out at 3.7.
Regarding `CC[C@H](C)[C@@H](CO)NS(=O)(=O)c1ccc(Br)cc1`, the Ratio EC50 worked out at 9.

The record behind these values is ChEMBL document CHEMBL1155000, “Discovery of a novel series of Notch-sparing gamma-secretase inhibitors” (Bioorg Med Chem Lett, 2008).
